Measured values published in patent US20250177353A1 (priority 2021, published 2025).

Legend:
[1] = Phase 2a trial: high sensitivity C-reactive protein (hsCRP) (Table 15)
[2] = Phase 2a trial: anticipated increase in resting energy expenditure
[3] = Phase 2a trial: liver fat by MRI-PDFF (change and responder rate; Tables 7-9); conditions: for Non-responder (MRI-PDFF), number of subjects / Non-responder (MRI-PDFF), percent of subjects / Responder (>30% liver fat reduction by MRI-PDFF), number of subjects / Responder (>30% liver fat reduction by MRI-PDFF), percent of subjects: Day 61; for MRI-PDFF change at Day 61, Difference of LS Mean and Placebo / MRI-PDFF mean change from baseline at Day 61, LS Mean (ANCOVA): FAS population; for relative reduction in liver fat (MRI-PDFF) / responder rate (>30% relative reduction of liver fat): 61 days
[4] = MAD phase I study: safety, body temperature, heart rate
[5] = MAD study: body weight and average glucose level
[6] = SAD phase I study: safety and tolerability; conditions: single oral doses of 30-1400 mg
[7] = Phase 2a trial: MRI liver volume (Table 14); conditions: abdominal MRI, FAS population, difference is placebo minus dose group
[8] = 150 mg, FAS Population (N = 20)
[9] = 150 mg, HbA1c 5.7%-9.0% (N = 7)
[10] = 300 mg, FAS Population (N = 21)
[11] = 300 mg, HbA1c 5.7%-9.0% (N = 8)
[12] = 450 mg, FAS Population (N = 18)
[13] = 450 CM1, HbA1c 5.7%-9.0% (N = 7)
[14] = All CM1 doses, FAS Population (N = 59)
[15] = All CM1 doses, HbA1c 5.7%-9.0% (N = 22)
[16] = 200 mg QD oral, high BMI subjects

With Cn1c(COc2ccc([N+](=O)[O-])cc2[N+](=O)[O-])cnc1[N+](=O)[O-] the “hsCRP mean change from baseline, LS Mean (SEM)” value ([1]; 300 mg, Day 61, FAS population) was −1.02 (0.440), the “hsCRP change from baseline, Difference of LS Mean and Placebo (SEM)” value ([1]; 450 mg, Day 61, FAS population) was −2.22 (0.655) and the “hsCRP mean change from baseline, LS Mean (SEM)” value ([1]; 450 mg, Day 61, FAS population) was −1.65 (0.460). For the same compound, the “high sensitivity C-reactive protein (hsCRP)” value ([1]; 150, 300, 450 mg QD, 61 days (p<0.005, high dose)) was “Dose dependent reduction”, the “anticipated increase in resting energy expenditure” value (“anticipated increase” below) ([2]; 150 mg) was 10% and the “anticipated increase” value ([2]; 300 mg) was 20%. The “anticipated increase” value ([2]; 450 mg) was 30%, the “Non-responder (MRI-PDFF), number of subjects” value [3, 8] was 10 and the “Non-responder (MRI-PDFF), percent of subjects” value [3, 8] was “(50.0%)”. For the same compound, the “Responder (>30% liver fat reduction by MRI-PDFF), number of subjects” value [3, 8] was 8, the “Responder (>30% liver fat reduction by MRI-PDFF), percent of subjects” value [3, 8] was “(40.0%)” and the “Non-responder (MRI-PDFF), number of subjects” value [3, 9] was 3. The “Non-responder (MRI-PDFF), percent of subjects” value [3, 9] was “(42.9%)”, the “Responder (>30% liver fat reduction by MRI-PDFF), number of subjects” value [3, 9] was 3 and the “Responder (>30% liver fat reduction by MRI-PDFF), percent of subjects” value [3, 9] was “(42.9%)”. The “Non-responder (MRI-PDFF), number of subjects” value [3, 10] was 5, the “Non-responder (MRI-PDFF), percent of subjects” value [3, 10] was “(23.8%)” and the “Responder (>30% liver fat reduction by MRI-PDFF), number of subjects” value [3, 10] was 15. For the same compound, the “Responder (>30% liver fat reduction by MRI-PDFF), percent of subjects” value [3, 10] was “(71.4%)”, the “Non-responder (MRI-PDFF), number of subjects” value [3, 11] was 1 and the “Non-responder (MRI-PDFF), percent of subjects” value [3, 11] was “(12.5%)”. The “Responder (>30% liver fat reduction by MRI-PDFF), number of subjects” value [3, 11] was 6, the “Responder (>30% liver fat reduction by MRI-PDFF), percent of subjects” value [3, 11] was “(75.0%)” and the “Non-responder (MRI-PDFF), number of subjects” value [3, 12] was 5. The “Non-responder (MRI-PDFF), percent of subjects” value [3, 12] was “(27.8%)”, the “Responder (>30% liver fat reduction by MRI-PDFF), number of subjects” value [3, 12] was 13 and the “Responder (>30% liver fat reduction by MRI-PDFF), percent of subjects” value [3, 12] was “(72.2%)”. For the same compound, the “Non-responder (MRI-PDFF), number of subjects” value [3, 13] was 1, the “Non-responder (MRI-PDFF), percent of subjects” value [3, 13] was “(14.3%)” and the “Non-responder (MRI-PDFF), number of subjects” value [3, 14] was 20. For the same compound, the “Non-responder (MRI-PDFF), percent of subjects” value [3, 14] was “(33.9%)”, the “Non-responder (MRI-PDFF), number of subjects” value [3, 15] was 5 and the “Non-responder (MRI-PDFF), percent of subjects” value [3, 15] was “(22.74%)”. The “MRI-PDFF percent change from Baseline to Day 61, Mean” value (“MRI-PDFF percent change … Mean” below) ([3]; CM1 150 mg (N = 20)) was −33.389%, the “MRI-PDFF percent change from Baseline to Day 61, Median” value (“MRI-PDFF percent change … Median” below) ([3]; CM1 150 mg (N = 20)) was −32.830% and the “MRI-PDFF change at Day 61, Difference of LS Mean and Placebo” value (from here on “MRI-PDFF change at Day 61, Difference”) ([3]; CM1 150 mg) was −5.21. For the same compound, the “MRI-PDFF mean change from baseline at Day 61, LS Mean (ANCOVA)” value (“MRI-PDFF mean change from baseline” below) ([3]; CM1 150 mg) was −4.64, the “MRI-PDFF percent change … Mean” value ([3]; CM1 300 mg (N = 21)) was −42.958% and the “MRI-PDFF percent change … Median” value ([3]; CM1 300 mg (N = 21)) was −41.400%. For the same compound, the “MRI-PDFF change at Day 61, Difference” value ([3]; CM1 300 mg) was −6.77, the “MRI-PDFF mean change from baseline” value ([3]; CM1 300 mg) was −6.21 and the “MRI-PDFF percent change … Mean” value ([3]; CM1 450 mg (N = 18)) was −40.369%. For the same compound, the “MRI-PDFF percent change … Median” value ([3]; CM1 450 mg (N = 18)) was −42.335%, the “MRI-PDFF change at Day 61, Difference” value ([3]; CM1 450 mg) was −6.60 and the “MRI-PDFF mean change from baseline” value ([3]; CM1 450 mg) was −6.03. For the same compound, the “relative reduction in liver fat (MRI-PDFF)” value ([3]; high dose (450 mg QD)) was 40%, the “responder rate (>30% relative reduction of liver fat)” value ([3]; high dose (450 mg QD)) was 72% and the “relative reduction in liver fat (MRI-PDFF)” value ([3]; low dose (150 mg QD)) was 33%. The “responder rate (>30% relative reduction of liver fat)” value ([3]; low dose (150 mg QD)) was 40%, the “relative reduction in liver fat (MRI-PDFF)” value ([3]; mid dose (300 mg QD)) was 43% and the “responder rate (>30% relative reduction of liver fat)” value ([3]; mid dose (300 mg QD)) was 71%. The SAEs [4, 16] was “no SAEs”, the tolerability [4, 16] was “tolerated” and the body temperature ([4]; MAD QD dosing period (FIG. 6)) was “no significant increase in body temperature”. For the same compound, the heart rate ([4]; MAD study (FIG. 12)) was “not accompanied with an increase in heart rate”, the body weight ([5]; MAD study (FIG. 8)) was “reduces” and the glucose level ([5]; MAD study (FIG. 9)) was “reduces”. For the same compound, the “Serious Adverse Events (SAEs)” value [6] was “no Serious Adverse Events (SAEs) reported”, the safety and tolerability [6] was “safe and well tolerated” and the “Mean Diff. (Uncorrected Fisher's LSD), liver volume, percent change from baseline” value ([7]; Placebo vs. 150 mg once daily) was 3.669%. The “Mean Diff. (Uncorrected Fisher's LSD), liver volume, percent change from baseline” value ([7]; Placebo vs. 300 mg once daily) was 6.949% and the “Mean Diff. (Uncorrected Fisher's LSD), liver volume, percent change from baseline” value ([7]; Placebo vs. 450 mg once daily) was 6.173%.
